From patent US20250353917A1

Biological target: EGFR on BxPC-3 cells (UniProt P00533)
Experiment: cell-based or functional assay

| Substance | *EC50 (pM), TDCC, depletion of luciferized BxPC3 cells with activated T cells |
| --- | --- |
| SI-79X1 (bispecific antibody) | 24.6 pM |
| SI-79X5 (bispecific antibody) | 30.7 pM |
